These results are taken from patent US20220265579A1, “COMPOSITION FOR PREVENTING OR TREATING CARDIO-CEREBROVASCULAR DISEASE COMPRISING AUTOPHAGY ACTIVATOR AS ACTIVE INGREDIENT” (VASTHERA CO. LTD., priority 2019, published 2022).

Each structure is given as a SMILES string.

The subject of this assay is HUVEC. Nature of the assay: Cell ATP level, ATPlite luminescence assay system. Conditions: treated for 0 to 360 minutes, FIG. 2A.

`CN[C@H]1CC[C@@H](c2ccc(Cl)c(Cl)c2)c2ccccc21` [sertraline]: the “intracellular ATP level” value is “decreases in proportion to the time”.
